Results on two compounds are retold here after ChEMBL document CHEMBL4828761, “Development and crystallography-aided SAR studies of multifunctional BuChE inhibitors and 5-HT6R antagonists with β-amyloid anti-aggregation properties” (Eur J Med Chem, 2021).

Chains of the proteins cited; added tags and fusions are not shown.
UniProt P81908, whole entry: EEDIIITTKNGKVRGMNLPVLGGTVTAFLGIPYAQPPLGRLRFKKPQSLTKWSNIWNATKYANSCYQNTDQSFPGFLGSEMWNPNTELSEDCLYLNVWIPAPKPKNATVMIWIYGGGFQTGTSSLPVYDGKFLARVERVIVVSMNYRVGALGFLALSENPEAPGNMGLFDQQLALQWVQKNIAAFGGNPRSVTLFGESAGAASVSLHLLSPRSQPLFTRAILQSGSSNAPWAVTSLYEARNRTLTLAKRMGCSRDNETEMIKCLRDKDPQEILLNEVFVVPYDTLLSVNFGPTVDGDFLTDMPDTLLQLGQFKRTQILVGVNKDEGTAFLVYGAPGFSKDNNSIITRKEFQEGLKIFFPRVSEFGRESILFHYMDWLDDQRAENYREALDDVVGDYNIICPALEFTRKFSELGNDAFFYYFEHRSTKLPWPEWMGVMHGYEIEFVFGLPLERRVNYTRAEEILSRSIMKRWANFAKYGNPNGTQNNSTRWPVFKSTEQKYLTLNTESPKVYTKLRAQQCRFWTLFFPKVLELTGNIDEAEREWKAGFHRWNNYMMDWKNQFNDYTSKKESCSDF

Test [1] deals with Cholinesterase (Equus caballus) (UniProt P81908). Description: Non-competitive inhibition of equine serum BuChE using BTC as substrate by Lineweaver-Burk plot analysis. The class given is cell-free.
The target is the same in test [2]. Briefly: Non-competitive inhibition of equine serum BuChE using BTC as substrate by Cornish-Bowden plot analysis. The format is cell-free.

Activity calls are given as the source filed them. No cut-off for these calls is given here.

As for `O=S(=O)(c1ccccc1)n1ccc2c(OCCNCC3CCCCC3)cccc21`, the inhibition result in test [1] and in test [2] was “Active” in each case.

For the compound `O=S(=O)(c1ccccc1)n1ccc2c(OCCNCc3ccccc3)cccc21`, the inhibition entry in test [1] and in test [2] was “Active” in each case.
